From patent US9440952B2, “Compounds inhibiting leucine-rich repeat kinase enzyme activity” (Merck Sharp & Dohme Corp., priority 2013, dated 2016)
pIC50: −log10 of the molar value.

Chains of the proteins cited; added tags and fusions are not shown. Residues count along the entry.
UniProt Q5S007, 970-2527 G2019S limits assumed: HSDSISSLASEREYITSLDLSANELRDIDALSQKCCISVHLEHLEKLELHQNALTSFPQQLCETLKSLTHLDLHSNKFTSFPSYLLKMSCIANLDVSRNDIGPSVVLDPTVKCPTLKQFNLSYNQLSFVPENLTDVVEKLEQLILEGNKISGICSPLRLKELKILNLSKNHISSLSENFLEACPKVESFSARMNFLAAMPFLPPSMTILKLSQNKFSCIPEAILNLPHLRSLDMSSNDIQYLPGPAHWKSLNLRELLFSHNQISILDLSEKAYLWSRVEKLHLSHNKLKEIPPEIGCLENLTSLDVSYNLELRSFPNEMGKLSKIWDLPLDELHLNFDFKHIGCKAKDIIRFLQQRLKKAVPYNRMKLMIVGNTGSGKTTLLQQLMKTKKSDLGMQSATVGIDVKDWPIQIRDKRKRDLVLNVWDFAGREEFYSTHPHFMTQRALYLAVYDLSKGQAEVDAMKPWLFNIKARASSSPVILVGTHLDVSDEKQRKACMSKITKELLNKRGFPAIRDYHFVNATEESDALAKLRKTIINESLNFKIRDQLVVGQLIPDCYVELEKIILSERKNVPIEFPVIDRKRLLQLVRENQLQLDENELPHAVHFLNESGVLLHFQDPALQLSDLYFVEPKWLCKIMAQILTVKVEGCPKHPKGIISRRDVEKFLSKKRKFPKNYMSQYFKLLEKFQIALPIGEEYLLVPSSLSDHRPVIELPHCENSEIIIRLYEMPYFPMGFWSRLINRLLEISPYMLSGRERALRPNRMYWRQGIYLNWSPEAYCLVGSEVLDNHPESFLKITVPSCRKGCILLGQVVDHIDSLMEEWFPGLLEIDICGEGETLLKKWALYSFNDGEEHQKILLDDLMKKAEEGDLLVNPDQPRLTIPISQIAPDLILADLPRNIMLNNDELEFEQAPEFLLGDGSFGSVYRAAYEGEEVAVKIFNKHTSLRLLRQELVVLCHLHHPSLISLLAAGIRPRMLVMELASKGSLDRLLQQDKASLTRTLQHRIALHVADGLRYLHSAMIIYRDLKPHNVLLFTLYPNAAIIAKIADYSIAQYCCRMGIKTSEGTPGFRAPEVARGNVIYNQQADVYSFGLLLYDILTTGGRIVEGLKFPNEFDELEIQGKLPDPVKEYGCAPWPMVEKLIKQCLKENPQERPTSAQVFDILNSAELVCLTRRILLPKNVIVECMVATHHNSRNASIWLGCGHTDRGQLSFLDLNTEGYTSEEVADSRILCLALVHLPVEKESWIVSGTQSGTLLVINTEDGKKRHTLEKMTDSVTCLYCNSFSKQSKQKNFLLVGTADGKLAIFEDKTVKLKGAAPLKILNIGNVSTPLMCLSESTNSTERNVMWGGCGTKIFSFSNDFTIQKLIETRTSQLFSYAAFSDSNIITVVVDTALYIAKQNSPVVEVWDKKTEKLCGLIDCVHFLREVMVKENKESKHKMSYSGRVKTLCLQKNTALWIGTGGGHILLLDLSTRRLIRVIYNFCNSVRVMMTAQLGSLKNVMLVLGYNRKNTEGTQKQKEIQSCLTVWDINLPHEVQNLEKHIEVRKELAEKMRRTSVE

Molecular target: LRRK2(G2019S mutation, GST-LRRK2(amino acids 970-2527)) (Homo sapiens, UniProt Q5S007, G2019S)
Experiment: LRRK2 Km ATP LanthaScreen Assay
Format: biochemical
Settings: read-out: LRRK2 IC50, mean IC50 values

Compound `CCOc1ccc2[nH]nc(-c3ccnc(N4CC[C@H](OC)C4)c3)c2c1` has a pIC50 of 7.73.
